# Source: ChEMBL document CHEMBL4837254, “Discovery of Investigational Drug CT1812, an Antagonist of the Sigma-2 Receptor Complex for Alzheimer's Disease” (ACS Med Chem Lett, 2021)
# Experiment: Half life in mouse liver microsomes
# Assay type: ADME, Microsome
smiles,measurement,value
COc1cc(CCC(C)NCc2ccc(C(F)(F)F)cc2)ccc1O (stereo unspecified),half-life,16 min
